The list shows a part of the results, in another mix than the full data. Records with an inconclusive call do not appear. Calls of active or inactive are those of the source. Calls follow the shape of the dose curve; as a rule, active = well fitted inhibition curve with a large enough effect; inconclusive = small, poorly fitted or top-dose-only effect; inactive = flat fitted curve, though single readings scatter.
Potency is read from the fitted curve at half-maximal effect.

The assay in a line: qHTS for inhibitors of Vif-A3G interactions: Cherry picks. Also: nearly all actives have a fitted effect of over 80% in size. Particulars: HeLa A3G-eYFP + Vif (tagged APOBEC3G with the HIV-1 protein that degrades it), eYFP fluorescence increase, 24 h. From the text: The recent discovery and characterization of host restriction factors, which provide a potent defense to invading retroviruses, has provided new targets for antiviral drug development. APOBEC3G (A3G) and APOBEC3F (A3F) are potent cytidine deaminases that block HIV-1 replication; HIV-1 expresses the Vif protein, which counteracts A3G and A3F by binding to them and inducing their proteasomal degradation. The Vif-A3G and Vif-A3F interactions provide two potential targets for development of small molecules which can interfere with the ability of Vif to degrade A3G or A3F. […] To identify inhibitors that can interfere with Vif mediated degradation of A3G and A3F, we have developed Hela cell lines that stably express A3G or A3F tagged with eYFP at the C-terminal end (A3G-eYFP or A3F-eYFP, respectively) and Vif. In the absence of an inhibitor, Vif induces degradation of A3G-eYFP and A3F-eYFP, and the cells are not fluorescent. In the presence of an inhibitor, it is expected that Vif will be unable to degrade A3G-eYFP and/or A3F-eYFP, resulting in an increase in yellow fluorescence. […]
A3G-Vif cells were harvested from T225 flask and resuspended in phenol free OPTI-MEM medium with 5% FBS. […] After that, the plates were measured on Acumen Explorer (TTP Lab Tech). The fluorescence was detected by 488 nm/Ex and […].
A general note: qHTS replaces the single test concentration by a dilution series.
On to `CC[n+]1c(/C=C/N(C)c2ccccc2)oc2ccccc21`, for which the Potency is active: 13 µM.

(Values after PubChem BioAssay AID651812 (National Center for Advancing Translational Sciences (NCATS), 2012).)
